Measured values reported in patent US5932244A, “Liposomal human calcitonin gene-related peptide composition and preparation of the same” (priority 1996, dated 1999).

Legend:
ocular vessels = assay: vasodilatory activity: diameters of ocular vessels of anesthetized rabbits after dropping sample into the eye; format: in vivo, New Zealand white rabbits; settings: for vasodilation (diameter %): individual experiments 1-5; for vasodilation (diameter %), mean: n=5
[1] = Sephadex G-50 fine gel filtration of free and liposome-bound hCGRP; format: physicochemical
Method: Methods: Liposomal hCGRP and free hCGRP were analyzied by the method of Berk [Berk D. and Marcinka K., Gel Chromatography in Separation Methods. Deylz ed. 1984, 271]. hCGRP samples reconstituted with or without soybean phospholipid (1.0 ml in 0.1M Tris-HCl, pH8.8) were applied to a 1.5×46 cm sephdex G-50 fine column in 0.1M Tris-HCl, pH8.8. Blue dextran 2000 (Pharmacia) and ^32 PO4 (England) were mixed with separated sample as mark of Vo and Vi respectively.
Methods: During storage period of the reconstituted liposome after being sterilized at 100° C. for 30 min, free hCGRP, dissociated from the liposome, was determined by gel filtration at the interval of 3 months. The absorption at UV 206 nm of hCGRP has been correlated with 0.52 of the distribution coefficient (Kd) in correction of hCGRP standard. At this Kd value, we can investigate whether hCGRP is dissociated from the reconstituted liposome during storage period. Sephadex G-50 fine gel filtration was carried out, every datum is mean±SD of 3 indepentent operations.

[2] = storage time in aqueous solution; format: physicochemical
congestive heart failure = settings: cited from earlier work
[3] = in vivo; cited from earlier work
[4] = incubated in human plasma, 37° C., hour 0
[5] = incubated in human plasma, 37° C., hour 12
[6] = incubated in human plasma, 37° C., hour 24
[7] = incubated in human plasma, 37° C., hour 48

Human α-type calcitonin gene-related peptide [hCGRP]
vasodilation (diameter %) (ocular vessels; [4]): +213% and +191% and +187% and +194% and +188% | vasodilation (diameter %), mean (ocular vessels; [4]): +195% | vasodilation (diameter %), mean (ocular vessels; incubated in human plasma, 37° C., hour 0, listed as free hCGRP): +195±16.49% | vasodilation (diameter %) (ocular vessels; [5]): +102% and +93% and +114% and +90% and +87% | vasodilation (diameter %), mean (ocular vessels; [5]): +97% | vasodilation (diameter %) (ocular vessels; [6]): +52% and +49% and +79% and +82% and +51% | vasodilation (diameter %), mean (ocular vessels; [6]): +63% | vasodilation (diameter %) (ocular vessels; [7]): +29% and +33% and +22% and +19% and +24% | vasodilation (diameter %), mean (ocular vessels; [7]): +25% | vasodilation (diameter %), mean (ocular vessels; incubated in human plasma, 37° C., hour 48, listed as free hCGRP): +25±6.8% | vasodilation (diameter %) (ocular vessels; stored in H2O, 25° C., day 0): +189% and +191% and +181% and +192% and +179% | vasodilation (diameter %), mean (ocular vessels; stored in H2O, 25° C., day 0): +187% | vasodilation (diameter %), mean (ocular vessels; stored in H2O, 25° C., day 0, listed as free hCGRP): +187±8.9% | vasodilation (diameter %) (ocular vessels; stored in H2O, 25° C., day 30): +142% and +133% and +152% and +161% and +165% | vasodilation (diameter %), mean (ocular vessels; stored in H2O, 25° C., day 30): +151% | vasodilation (diameter %) (ocular vessels; stored in H2O, 25° C., day 60): +94% and +99% and +84% and +114% | vasodilation (diameter %), mean (ocular vessels; stored in H2O, 25° C., day 60): +98% | vasodilation (diameter %) (ocular vessels; stored in H2O, 25° C., day 90): +82% and +79% and +63% and +88% and +102% | vasodilation (diameter %), mean (ocular vessels; stored in H2O, 25° C., day 90): +83% | vasodilation (diameter %), mean (ocular vessels; stored in H2O, 25° C., day 90, listed as free hCGRP): +83±12.4% | reconstitution efficiency of hCGRP in membrane (% at Kd 0.04) ([1]; gel filtration peak at Kd 0.04): 0% | % of hCGRP at Kd 0.52 (free hCGRP) ([1]; gel filtration peak at Kd 0.52): 100% | orginal storage time in aqueous solution [2]: 15 days | systemic artery blood pressure decrease (congestive heart failure; i.v. infusion 8.0 ng/kg/min for 8 h, 30 min after drug, p<0.05): 18% | hemodynamic effect (congestive heart failure; intravenous infusion 8.0 ng/kg/min for 8 h): caused a decrease in the right arterial, pulmanary artery, pulmonary artery wedge and systemic arterial pressure | half-life [3]: 9 to 12 min

“And” between values parts separate entries of the source, which are not always exact repeats. Identical values can stand only once.
